Among the data in ChEMBL document CHEMBL1139238, “Preparation of two sets of 5,6,7-trioxygenated dihydroflavonol derivatives as free radical scavengers and neuronal cell protectors to oxidative damage” (Bioorg Med Chem, 2009) are Activity values, retold here.

The assay concerns Liver. Briefly: Antioxidant activity against FeSO4-induced lipid peroxidation in rat liver homogenate assessed as inhibition of malondialdehyde release after 1 hr by thiobarbituric acid assay. It counts as functional, tissue-based.

For `COc1cc([C@@H]2Oc3cc(OC)c(O)c(OC)c3C(=O)[C@@H]2O)ccc1O` (racemic), the Activity entry is “Dose-dependent effect”.
Next, `COc1cc([C@H]2Oc3cc(OC)c(OC)c(OC)c3C(=O)[C@@H]2O)ccc1O` (racemic): “Dose-dependent effect”.
